This passage reports inhibition results from PubChem BioAssay AID1656 (Sanford-Burnham Center for Chemical Genomics, 2009).

Only a part is listed here, and it is no random draw. The source made the active and inactive calls.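 The calls were made as follows: active = lipid droplet intensity inhibited by at least 50%, with more than 500 cells counted; inconclusive = wells with under 300 cells, treated as cytotoxic; inactive = the rest.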

The assay in a line: oleate-induced lipid droplet accumulation in AML12 cells – imaging, high-throughput imaging, BODIPY stain, primary screen (AID 1656). The settings on record: AML12 mouse hepatocytes, oleate lipid droplets, at 6.5 µM, stronger effect = higher value.
Regarding `Cc1cc(SC(NC=O)C(Cl)(Cl)Cl)ncn1` (stereo not drawn), the inhibition was inactive: -0.9%. With `COc1ccccc1OP(C)(=O)Nc1ccccc1` (stereo not drawn) the figure was inactive: -0.8%; with `CP(=O)(Nc1ccccc1Br)Oc1ccccc1` (stereo not drawn), inactive: 27.2%; with `O=[N+]([O-])c1ccc(Nc2ccc(Oc3ccc([N+](=O)[O-])cc3[N+](=O)[O-])cc2)c([N+](=O)[O-])c1`, inactive: 30.6%. With `CCOC(=O)Nc1ccc([As](=O)(O)O)c(O)c1` the figure was inactive: -6.4%. With `CCCCOc1ccc(C(=O)NCC2(N3CCCCC3)CCCCC2)cc1OC` the figure was inactive: 0.2%. Regarding `Cc1cc(SC(NC(=O)c2ccccc2)C(Cl)(Cl)Cl)nc(C(C)C)n1` (stereo not drawn), the inhibition is inactive: -21.2%.

With `O=C(OC1CN2CCC1CC2)c1cccc([N+](=O)[O-])c1` (stereo not drawn), the inhibition is inactive: 5.8%. With `CCOC(=O)c1ccc(NC(=O)C(C)(CCl)SC)cc1` (stereo not drawn) the figure was inactive: 19.1%.

On to `CCOC(=O)c1ccc(NP(C)(=O)Oc2ccc(OC)cc2)cc1` (stereo not drawn), for which the inhibition is inactive: -50.4%. In the case of `CCC(C)N(CC(C)C)C(=S)SC(NC(C)=O)C(Cl)(Cl)Cl` (stereo not drawn), the inhibition was inactive: -0.5%. With `CP(=O)(Nc1ccccn1)Oc1ccc(Cl)cc1` (stereo not drawn) the figure was inactive: 5.1%; with `COP1(=S)c2c(C)nn(CCC#N)c2N=C(c2ccc(F)cc2)N1C` (stereo not drawn), inactive: -0.2%.

With `Cc1cccc(C)c1OP(C)(=O)Nc1ccc(SC(F)(F)F)cc1` (stereo not drawn), the inhibition is inactive: -0.3%. For the compound `CP(=O)(Oc1ccccc1)OC(c1ccccc1)C(F)(F)F` (stereo not drawn), the inhibition is inactive: -25.4%. With `O=C(COc1ccccc1)OC1CN2CCC1CC2` (stereo not drawn) the figure was inactive: 0.1%; with `CCc1ccc(OP(C)(=O)N2CCN(c3ccc([N+](=O)[O-])cc3)CC2)cc1` (stereo not drawn), inactive: 10.6%.

For the compound `Cc1cc(C)cc(OP(C)(=O)Nc2ccc(SC(F)(F)F)cc2)c1` (stereo not drawn), the inhibition was inactive: -0.7%.

As for `O=C(Nc1ccncc1[N+](=O)[O-])c1ccc([N+](=O)[O-])cc1[N+](=O)[O-]`, the inhibition was inactive: 5.6%. With `COc1ccc(N/C(=N/P(=O)(N2CCOCC2)N2CCOCC2)N2CCOCC2)cc1` the figure was inactive: -13.2%; with `Cc1c2c(nc3ccccc13)SC(C(Cl)Cl)C2` (stereo not drawn), inactive: -1.9%; with `Cc1cc(=O)[nH]c(N[N+](=O)[O-])n1`, inactive: -0.5%. With `CCN(CC)CCCOC(=O)C(O)(c1ccccc1)c1ccccc1` the figure was inactive: 3.8%; with `COc1ccc2nc(NP(=O)(c3ccccc3)c3ccccc3)sc2c1`, inactive: 2.5%; with `COc1cc(I)ccc1[As](=O)(O)O`, inactive: -6%. With `CCOC(=O)c1ccc(NP(C)(=O)Oc2ccccc2)cc1` (stereo not drawn) the figure was inactive: -9.9%. Consider `ClCCSc1nnc(-c2cccnc2)o1`, for which the inhibition is inactive: -0.7%. Turning to `Cc1ccc(NP(C)(=O)Oc2ccccc2)c(C)c1` (stereo not drawn), the inhibition is inactive: -8.8%.
